{"source": "ChEMBL document CHEMBL1125719", "about": "“2-(3,4-Dichlorophenyl)-N-methyl-N-[2-(1-pyrrolidinyl)-1-substituted- ethyl]-acetamides: the use of conformational analysis in the development of a novel series of potent opioid kappa agonists” (1991)", "data": [{"test_system": "Mus musculus", "experiment": "Anti-nociceptive activity (Analgesia reversed by 3 mg/kg of naloxone) after administration through the subcutaneous route to female mice.", "units": {"ED50": "mg/kg"}, "values": [{"smiles": "CC(C)[C@@H](CN1CCCC1)N(C)C(=O)Cc1ccc(Cl)c(Cl)c1", "ED50": 0.05}, {"smiles": "CN(C(=O)Cc1ccc(Cl)c(Cl)c1)[C@H](CN1CCCC1)C(C)(C)C", "ED50": 0.03}, {"smiles": "C[C@@H]([C@H](C)N(C)C(=O)Cc1ccc(Cl)c(Cl)c1)N1CCCC1", "ED50": 4.4}, {"smiles": "C[C@@H](CN1CCCC1)N(C)C(=O)Cc1ccc(Cl)c(Cl)c1", "ED50": 0.67}, {"smiles": "CN(C(=O)Cc1ccc(Cl)c(Cl)c1)C(C)(C)CN1CCCC1", "ED50": "> 10"}, {"smiles": "C[C@@H](CN(C)C(=O)Cc1ccc(Cl)c(Cl)c1)N1CCCC1", "ED50": "> 10"}]}]}
